This note sets out measurements from patent publication US9073929B2, “Aldosterone synthase inhibitors” (ElexoPharm GmbH, priority 2011, dated 2015).

By UniProt entry, the sequences of proteins in these tests, tags left out. Residues count along the entry.
UniProt P15538, 25-503 limits assumed: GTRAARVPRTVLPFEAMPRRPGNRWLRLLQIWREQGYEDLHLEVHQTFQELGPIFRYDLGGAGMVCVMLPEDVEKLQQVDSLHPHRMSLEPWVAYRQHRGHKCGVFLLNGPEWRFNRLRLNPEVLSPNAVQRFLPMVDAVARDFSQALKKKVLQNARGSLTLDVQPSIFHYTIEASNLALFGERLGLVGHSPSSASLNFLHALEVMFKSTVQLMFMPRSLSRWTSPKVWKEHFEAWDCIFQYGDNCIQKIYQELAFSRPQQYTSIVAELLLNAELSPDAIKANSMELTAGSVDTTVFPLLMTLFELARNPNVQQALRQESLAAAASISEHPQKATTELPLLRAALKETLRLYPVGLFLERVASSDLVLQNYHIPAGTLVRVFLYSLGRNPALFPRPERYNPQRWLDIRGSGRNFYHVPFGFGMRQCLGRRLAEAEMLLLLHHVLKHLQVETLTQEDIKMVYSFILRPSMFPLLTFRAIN
UniProt P19099, 25-503 limits assumed: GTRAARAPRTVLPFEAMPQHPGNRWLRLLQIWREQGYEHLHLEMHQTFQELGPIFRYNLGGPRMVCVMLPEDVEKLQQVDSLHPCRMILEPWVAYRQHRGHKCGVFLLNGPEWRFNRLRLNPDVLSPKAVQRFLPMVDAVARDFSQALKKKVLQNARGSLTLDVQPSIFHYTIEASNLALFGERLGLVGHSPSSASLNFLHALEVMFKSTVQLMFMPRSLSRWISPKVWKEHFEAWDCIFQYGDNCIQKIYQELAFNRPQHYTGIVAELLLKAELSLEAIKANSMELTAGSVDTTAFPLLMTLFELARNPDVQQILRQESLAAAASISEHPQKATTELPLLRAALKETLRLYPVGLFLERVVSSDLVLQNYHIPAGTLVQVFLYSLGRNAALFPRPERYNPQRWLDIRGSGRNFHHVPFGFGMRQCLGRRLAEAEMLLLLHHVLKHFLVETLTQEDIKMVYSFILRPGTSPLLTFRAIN

SMILES strings stand for the structures. pIC50: −log10 of the molar value.

Test [1] addresses human CYP11B1 (Homo sapiens, UniProt P15538). In words: V79-Human-CYP11B1 cell assay (cortisol HTRF). It is filed as cell-based. Conditions: read-out: V79 Human CYP11B1 IC50, V79-hCYP11B1 cells, 250 nM 11-deoxycortisol, 3 hours. The method, then:
Methods for V79-Human-CYP11B2 and V79-Human-CYP11B1 Assays: V79 cell lines stably expressing the either the human CYP11B2 or the human CYP11B1 enzyme were generated using a standard transfection protocol. V79 cells were transfected with plasmids pTriEx3-Hygro-hCyp11B2 or pTriEx3-Hygro-hCyp11B1 using Lipofectamine2000 reagent. […] Single cell clones were generated by infinite dilution in DMEM supplemented with 10% FBS and 400 μg/mL hygromycin until single colonies were obtained. […] For testing of inhibitors, cells were harvested at 80% confluency with 0.5% Trypsan-EDTA, washed once in PBS, and reconstituted in DMEM+0.1% BSA media at a cell concentration of 400,000 cells/mL. 25 μl of cells were added to a 384 well tissue culture treated plate and mixed with 0.25 μl of inhibitor or DMSO (1% final DMSO concentration) for 1 hour at 37° C., 5% CO2. […] The reaction was carried out for 3 hours at 37° C., 5% CO2 and was stopped by harvesting the supernatants. […] IC50's for the inhibitor were determined by plotting the amount of product formed against the concentration of inhibitor using sigmoidal dose-response curve (variable slope) fit in GraphPad.
A general note: Time-resolved FRET reads energy transfer from a long-lived donor to a nearby acceptor.

Test [2] deals with human CYP11B2 (Homo sapiens, UniProt P19099). In words: V79-Human-CYP11B2 cell assay (aldosterone HTRF). Conditions: read-out: V79 Human CYP11B2 IC50, V79-hCYP11B2 cells, 125 nM 11-deoxycorticosterone, 3 hours.

Take `COC(C)(C)c1cncc(-c2ccc3c(c2)CCc2nncn2-3)c1`: the pIC50 in test [1] is 6.97; in test [2], 8.30.

By pIC50 is commonly meant −log10 of the IC50, conventionally taken in molar units.
